These results are taken from patent EP3928779A1 (Chugai Seiyaku Kabushiki Kaisha, priority 2014, dated 2016).

The chains behind the UniProt entries cited, without tags or fusion partners.
UniProt O95436, whole entry: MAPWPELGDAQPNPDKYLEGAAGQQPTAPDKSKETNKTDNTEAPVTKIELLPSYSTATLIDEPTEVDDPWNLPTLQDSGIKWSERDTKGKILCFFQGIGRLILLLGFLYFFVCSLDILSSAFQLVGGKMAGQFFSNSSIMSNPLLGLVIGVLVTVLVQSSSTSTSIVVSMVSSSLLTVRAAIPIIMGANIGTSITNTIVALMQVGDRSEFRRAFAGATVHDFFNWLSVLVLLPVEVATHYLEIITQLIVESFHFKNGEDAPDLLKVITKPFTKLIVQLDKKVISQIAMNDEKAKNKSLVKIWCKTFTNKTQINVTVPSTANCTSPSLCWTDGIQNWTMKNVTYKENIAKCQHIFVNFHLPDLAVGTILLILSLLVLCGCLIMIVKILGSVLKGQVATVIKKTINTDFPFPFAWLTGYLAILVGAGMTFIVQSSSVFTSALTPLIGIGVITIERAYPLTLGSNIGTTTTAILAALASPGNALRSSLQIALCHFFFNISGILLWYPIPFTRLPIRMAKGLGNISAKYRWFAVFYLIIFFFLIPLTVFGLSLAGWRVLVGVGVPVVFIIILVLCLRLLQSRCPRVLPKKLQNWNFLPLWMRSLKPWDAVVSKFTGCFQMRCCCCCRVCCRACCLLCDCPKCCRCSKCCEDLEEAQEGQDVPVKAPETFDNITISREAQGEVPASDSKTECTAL

The term IC50 denotes the concentration needed to halve the response being measured. A higher IC50 goes with weaker potency in that assay.

One experiment addresses human NaPi-IIb (Homo sapiens, UniProt O95436). Put plainly: Inhibitory effect on 33PO4 uptake into human NaPi-IIb-expressing cell (CHO). The note with it: 33PO4 uptake into human NaPi-IIb-expressing CHO cells; compound at 1, 3, 10 or 30 µM. Type of experiment: cell-based.
Experiment [1] concerns rat small-intestinal brush border membrane vesicles. Put plainly: Inhibitory effect on 33PO4 uptake into rat small-intestinal brush border membrane vesicles (rapid filtration method). Type of experiment: biochemical. The note with it: 33PO4 uptake into rat small-intestinal BBMVs; test compound 1 µM; reacted for 60 seconds.

Turning to `C[C@]12CCCN1N(Cc1ccc(C#N)cc1)C(=O)C(C(=O)Nc1ccc(C(F)(F)F)cc1-c1ccc(C(F)(F)F)nc1)=C2O`, at human NaPi-IIb, the IC50 was 5.7 µM. Also, in experiment [1], the “Rate of uptake inhibition (%) (1 µM)” value stood at 77%.
Consider `C[C@]12CCCN1N(Cc1cc(F)c(F)cc1F)C(=O)C(C(=O)Nc1ccc(C(F)(F)F)cc1-c1ccc(C(F)(F)F)nc1)=C2O`, for which the IC50 against human NaPi-IIb stood at 1.5 µM. The “Rate of uptake inhibition (%) (1 µM)” value in experiment [1] came out at 73%.
On to `C[C@]12CCCN1N(Cc1ccc(F)cc1F)C(=O)C(C(=O)Nc1ccc(C(F)(F)F)cc1-c1cc(C(F)(F)F)ncn1)=C2O`, for which the IC50 against human NaPi-IIb is 5.6 µM. In addition, in experiment [1], the “Rate of uptake inhibition (%) (1 µM)” value was found to be 80%.
The like results for `C[C@]12CCCN1N(Cc1cc(F)ccc1F)C(=O)C(C(=O)Nc1ccc(C(F)(F)F)cc1-c1cc(C(F)(F)F)ncn1)=C2O` were, in that order, 4.2 µM and 79%.
For `C[C@]12CCCN1N(Cc1cccc(C#N)c1)C(=O)C(C(=O)Nc1ccc(C(F)(F)F)cc1-c1ccc(C(F)(F)F)nc1)=C2O` the same measures were 3.7 µM and 82%.
The like results for `C[C@]12CCCN1N(Cc1ccccc1)C(=O)C(C(=O)Nc1ccc(C(F)(F)F)cc1-c1ccc(C(F)(F)F)nc1)=C2O` were, in that order, 5.1 µM and 76%.
In turn, `C[C@]12CCCN1N(Cc1c(F)cc(C#CCCCCOCC(O)CO)cc1F)C(=O)C(C(=O)Nc1ccc(C(F)(F)F)cc1-c1ccc(C(F)(F)F)nc1)=C2O` (single isomer, unassigned) returned a 50% inhibitory concentration (IC50) against human NaPi-IIb of 2.1 µM. For the same compound, the “Rate of uptake inhibition (%) (1 µM)” value in experiment [1] is given as 72%.
For `CC(C)[C@H]1C(O)=C(C(=O)Nc2ccc(C(F)(F)F)cc2-c2cc(C(F)(F)F)ncn2)C(=O)N(Cc2ccc(OCCN3CCOCC3)c(F)c2F)N1C` the same measures were 18.7 µM and 53%.
Take `C[C@]12CCCN1N(Cc1ccccc1C#N)C(=O)C(C(=O)Nc1ccc(C(F)(F)F)cc1-c1ccc(C(F)(F)F)nc1)=C2O`: the “Rate of uptake inhibition (%) (1 µM)” value in experiment [1] is 71%.
